Patent US20130295185A1, “COMPOUNDS AND METHODS FOR INDUCING APOPTOSIS IN CANCER CELLS USING A BH3 ALPHA-HELICAL MIMETIC” (H. Lee Moffitt Cancer Center and Research Institute, Inc., priority 2011, published 2013)

Legend:
[1] = system: Mitochondria from A549 cells; experiment: Cytochrome c release from isolated A549 mitochondria; conditions: 50 μM, 60 min, 37° C.; tested form: diammonium salt (as drawn, CO2NH4)
Experimental: FIG. 5 is a series of images illustrating BH3-M6 induces apoptosis in a caspase-dependent manner. (A) BH3-M6 releases cytochrome c from mitochondria. Mitochondria from A549 cells were incubated at 37° C. with 0, 50 μM BH3-M6 or TPC for 60 min. Cytochrome c release was determined as described in Methods. B-D A549 cells were treated with the indicated BH3-M6 concentrations for up to 72 h and then processed for various assays as described in EXPERIMENTAL PROCEDURES. (B) BH3-M6 induces apoptosis after 48 h of exposure to BH3-M6, as shown by phase images of cells (left panel) or DAPI nuclear staining (right panel). The arrows point towards cells in the process of rounding. The images from phase and DAPI are from different experiments. […] (D) BH3-M6 decreases the viability of A549 cells in a dose-dependent manner as measured by MTT assay after 72 h treatment. […] Caspase-3/-7 activity was determined as described in EXPERIMENTAL PROCEDURES. […] Middle panel, PARP cleavage was measured by Western blotting. Lower panel, extent of apoptosis was measured by TUNEL assay.
Release of cytochrome c from isolated mitochondria was measured as described by Takahashi et al. (Takahashi, Y., Karbowski, M., Yamaguchi, H., Kazi, A., Wu, J., Sebti, S. M., Youle, R. J., and Wang, H. G. (2005) Mol Cell Biol 25, 9369-9382) Cell-free caspase-3/-7 activity and the extent of PARP cleavage was determined as described previously. […]

[2] = system: Bim with Bcl-XL, Bcl-2 and Mcl-1; experiment: Co-immunoprecipitation from MDA-MB-468 cells co-expressing Bcl-XL, Bcl-2 or Mcl-1 and Bim; conditions: MDA-MB-468, 0-100 μM BH3-M6 or 100 μM TPC, 24 h; tested form: diammonium salt (as drawn, CO2NH4)
Experimental: FIG. 4 is a series of images illustrating BH3-M6 inhibits the interaction between Bcl-XL, Bcl-2, and Mcl-1 with Bim, Bak or Bax in intact cells. (A) Co-immunoprecipitation from HEK293T cells. HEK293T cells were co-transfected with HA-Bcl-XL and Flag-BimEL for 18 h. Cells were exposed to 0, 25, 50, and 100 μM of BH3-M6 or 100 μM of TPC for 2 h at 37° C., lysed and subjected to immunoprecipitation with anti-FLAG-M2 beads. The resulting immune complexes, as well as total lysates, were analyzed by Western blotting with the indicated antibodies. (B) Co-immunoprecipitation from MDA-MB-468 cells expressing Bcl-XL-IRES-BimEL, Bcl-2-IRES-BimEL, and Mcl-1-IRES-BimEL. Cells were grown in 100-mm plates and treated with 0, 25, 50, and 100 μM BH3-M6 or 100 μM TPC for 24 h at 37° C., lysed and subjected to immunoprecipitation with Bcl-XL, Bcl-2, and Mcl-1 antibodies. The resulting immune complexes were analyzed by Western blotting with Bim, Bcl-XL, Bcl-2, and Mcl-1 antibodies. (C) Co-immunoprecipitation from H1299 cells. H1299 non-small lung cancer cells were grown in RPMI-1640 medium plus 10% FBS, antibiotics and 1% sodium pyruvate, 1% HEPES, and 1.1% glucose. […] The resulting immune complexes were analyzed by Western blotting with the indicated antibodies. […] The resulting immune complexes were analyzed by Western blotting with the antibodies indicated on the right. […]

**Q.** Which results are given for `CC(C)Cc1cc(-c2ccc(-c3ccc(CCC(=O)O)cc3CC(C)C)cc2Cc2ccccc2)ccc1OCC(=O)O`?
**A.** release of cytochrome c from isolated mitochondria [1]: triggered the release; disruption of interaction of Bim with Bcl-XL, Bcl-2 and Mcl-1 [2]: disrupted the interaction of Bim with Bcl-XL, Bcl-2 and Mcl-1 in a dose-dependent manner
